Assay results: publication PMC6966663 (Cancers, 2019)

Conditions: in vivo

NC(=O)c1ccc2nc(-c3ccc(C4(N)CCC4)cc3)c(-c3ccccc3)n2n1 [BAY 1125976]
Patients with TEAEs CTCAE Grade 1 or Grade 2 (human): Eighteen (22.8%) patients
Patients with TEAEs CTCAE Grade 3 or Grade 4 (human): 52 (65.8%) patients
Patients with TEAEs leading to dose modification (human): Forty-five (57.0%) patients
Patients with drug-related TEAEs (human): 69 (87.3%) patients
Cases of Grade 3 rash: one
Deaths during the treatment period or within the 30 days safety follow-up: Six
Patients with on-target Grade 3 hyperglycemia: one
SAEs considered drug-related: Six
